Assay results from paper PMC2195672 (The Journal of Experimental Medicine, 1999).

Test system: HBV epitope-specific CTL lines
Assay type: cell-based
Conditions: two CTL lines from HHD-transgenic mice; synthetic peptides; data not shown

## FLPSDFFPSV [core 18-27]
  Efficiency of CTL recognition relative to peptide 17-27: 10 fold
